Source: PubChem (Broad Institute)
Most compounds without a hit are left out; they make up all but 1.9% or so of the library.
FGF22 binding – FGF22 (human) thermal shift binding. recombinant FGF22 thermal shift, SYPRO orange fluorescence; percent of sucrose octasulfate shift, DMSO zero. activity (Tm shift, normalised), % at 9.99 µM. 340,000 tested, 1.5% active;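 active = mean Tm shift, scaled 0 neutral to 100 positive control, at about 1.3% or above, every replicate too, limit read from the data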
ERp5 inh – ERp5 (human) disulfide isomerase inhibition; Q15084; 350,000 tested, 0.05% active; ERp5 insulin aggregation, absorbance 650 nm, 90 min; inhibition, % at 9.99 µM;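 active = mean replicate inhibition above about 25%, with every replicate also reaching it, limit read from the data, passing the limit was not always enough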
PglD inh – PglD (C. jejuni) enzyme inhibition. 360,000 tested, 0.098% active. inhibition, % at 12.5 µM. purified PglD enzyme, DTNB colorimetric CoA detection; in the data active = inhibition above about 16%, passing the limit was not always enough
UUG fidelity – modulators of yeast start codon fidelity, primary screen, whole organism, S. cerevisiae, single point, plate reader | AID 602363, 2012 | S. cerevisiae UUG-firefly luciferase reporter, luminescence/redox ratio | activity score, % at 18.7 µM | hit rate 0.13% among 350,000;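 active = replicate mean at a twofold rise or more, about +100% in these data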;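 also: firefly luciferase made from a UUG start codon reports start codon fidelity; reporter light over untreated wells divided by growth signal over untreated wells; some hits fall short of that in this replicate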
PDI turbidity – blocks human protein disulfide isomerase activity; PDI insulin aggregation turbidity, A650, 90 min; inhibition, % at 10 µM; P07237; 350,000 tested, 0.052% active;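 active = mean inhibition across replicates of 30% or more, whatever share of single replicates reach that level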
ARNT TACC3 PPI – disrupts binding between human ARNT and TACC3 | AID 623870 | AlphaScreen His-ARNT PAS-B/GST-TACC3 binding, luminescence; TACC3 fragment carries E629A point mutation | Q9Y6A5 | inhibition, % at 9.99 µM | 390,000 tested, 0.66% active;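 active = mean inhibition of replicates at least 50% and at least half of replicates each reaching 50%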;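 also: 0% = complete ARNT plus TACC3 wells and 100% = ARNT alone without TACC3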
Starred values were filed as active, the others as inactive; x = no result.

A first look, four compounds:
cpd	compound	FGF22 binding	ERp5 inh	PglD inh
1	Cc1ccc(S(=O)(=O)Nc2ccc3c(c2)CC(=O)N([C@@H](C)CO)C[C@@H](C)[C@H](CN(C)C(=O)Nc2ccc4c(c2)OCO4)O3)cc1	0	0	3
2	CC1CCCC(C)N1C(=O)CSc1nnc(COc2cccc3cccnc23)o1 (stereo not given)	43*	0	x
3	O=C(CSc1nnc(COc2cccc3cccnc23)o1)N1CCCC1	0	-2	x
4	COc1cc(C(=O)NCCc2ccc3c(c2)OCO3)cc(OC)c1OC	44*	-1	-3

cpd	UUG fidelity	PDI turbidity	ARNT TACC3 PPI
1	0	x	-1
2	x	-2	-3
3	x	-6	4
4	x	16	-5

The listing, previewed entries included:
cpd	compound	FGF22 binding	ERp5 inh	PglD inh
1	Cc1ccc(S(=O)(=O)Nc2ccc3c(c2)CC(=O)N([C@@H](C)CO)C[C@@H](C)[C@H](CN(C)C(=O)Nc2ccc4c(c2)OCO4)O3)cc1	0	0	3
2	CC1CCCC(C)N1C(=O)CSc1nnc(COc2cccc3cccnc23)o1 (stereo not given)	43*	0	x
3	O=C(CSc1nnc(COc2cccc3cccnc23)o1)N1CCCC1	0	-2	x
4	COc1cc(C(=O)NCCc2ccc3c(c2)OCO3)cc(OC)c1OC	44*	-1	-3
5	COc1ccc(CC(=O)NCCc2ccc3c(c2)OCO3)cc1OC	0	0	0
6	O=C(Nc1ccc2c(c1)OCO2)Nc1ccc2c(c1)OCO2	0	5	3
7	COc1cc(NC(=O)Nc2ccc3c(c2)OCO3)cc(OC)c1OC	43*	-2	3
8	COc1ccc(C2CC(C(F)(F)F)n3nc(C(=O)O)c(Cl)c3N2)cc1OC (stereo not given)	x	x	2

cpd	UUG fidelity	PDI turbidity	ARNT TACC3 PPI
1	0	x	-1
2	x	-2	-3
3	x	-6	4
4	x	16	-5
5	-19	1	x
6	-13	2	-4
7	-19	2	0
8	335*	11	9

Other records follow.
cpd	compound	FGF22 binding	ERp5 inh	PglD inh
9	COc1ccc(C2CC(C(F)(F)F)n3nc(CO)c(Cl)c3N2)cc1OC (stereo not given)	x	x	2
10	CCOc1ccc2[nH]c(=O)c(CN(CCCN3CCOCC3)Cc3nnnn3Cc3ccc(OC)cc3)cc2c1	43*	4	x
11	Nc1cccc(S(=O)(=O)c2ccc(N)c(N)c2)c1	43*	6	x
12	Nc1cccc(S(=O)(=O)c2cccc(N)c2)c1	x	x	2
13	CCC(=O)N[C@@H]1CC[C@H](CCn2cc(-c3cccc(OC)c3)nn2)O[C@@H]1CO	0	x	-3
14	CCCCCc1ccc(-c2cn(CCCOCc3ccccc3)nn2)cc1	4.2*	4	x
15	Cc1ccc(C(=O)N/N=C/c2ccc(-c3ccccc3[N+](=O)[O-])o2)cn1	0	9	x
16	Cc1ccc(C(=O)N/N=C/c2ccc(-c3cccc(Cl)c3)o2)cn1	0	0	x

cpd	UUG fidelity	PDI turbidity	ARNT TACC3 PPI
9	-8	8	15
10	x	-3	-3
11	x	-2	-6
12	-23	-6	-15
13	x	x	0
14	-13	-4	-23
15	x	4	27*
16	x	-4	4

Carrying on.
cpd	compound	FGF22 binding	ERp5 inh	PglD inh
17	COc1cccc(S(=O)(=O)N2CC3(CN(C(=O)Nc4ccc(F)cc4)[C@@H](CO)c4[nH]c5cc(OC)ccc5c43)C2)c1	0	x	x
18	O=C(O)c1c(-c2ccccc2)c(-c2ccccc2)nc2ccccc12	43*	2	x
19	CSc1c(-c2ccccc2)nc2ccccc2c1C(=O)O	x	x	-2
20	CC(C)NC(=O)Nc1cccc2c1O[C@H](CN(C)C)[C@H](C)CN([C@H](C)CO)C2=O	0	-2	0
21	C/C=C/c1ccc([C@@H]2[C@@H](C#N)N(C(=O)NC3CCCC3)[C@@H]2CO)cc1	0	3	0
22	COc1ccccc1NC(=O)Nc1ccc(Cc2ccncc2)cc1	43*	1	x
23	CC(=O)Nc1cccc(NC(=S)Nc2ccc(F)c(Cl)c2)c1	1.3*	1	x
24	CC(=O)Nc1cccc(NC(=O)Nc2ccc(C)c(Cl)c2)c1	43	2	x

cpd	UUG fidelity	PDI turbidity	ARNT TACC3 PPI
17	x	x	x
18	x	2	-11
19	-20	1	-4
20	x	x	x
21	-1	x	-13
22	x	7	3
23	x	1	1
24	x	9	5

Next part:
cpd	compound	FGF22 binding	ERp5 inh	PglD inh
25	O=C(NNC(=S)Nc1ccc(F)c(Cl)c1)c1ccccc1Br	2.1*	-4	1
26	Cc1cccc(NC(=S)NNC(=O)c2ccccc2Br)c1	x	x	5
27	COc1ccc(CN2C(=O)c3cccnc3C2=O)cc1S(=O)(=O)N1CC(C)CC(C)C1 (stereo not given)	-1	2	12
28	CO[C@H]1CN(C)C(=O)c2cc(NC(=O)C3CC3)ccc2OC[C@@H](C)N(C(=O)c2cnccn2)C[C@H]1C	0	0	-2
29	Cc1c(O)ccc2c(CC(=O)N[C@@H](Cc3c[nH]c4ccccc34)C(=O)O)cc(=O)oc12	0	1	8
30	COc1ccc(C(=O)NC(C)Cc2c[nH]c3ccccc23)cc1 (stereo not given)	43*	-2	x
31	O=C(Cc1cc(=O)oc2cc(O)ccc12)N[C@@H](Cc1c[nH]c2ccccc12)C(=O)O	0	4	5
32	O=C(N[C@@H](Cc1c[nH]c2ccccc12)C(=O)O)c1ccc(Cl)cc1	44*	5	x

cpd	UUG fidelity	PDI turbidity	ARNT TACC3 PPI
25	-33	6	18
26	-34	0	34
27	3	0	29*
28	-8	x	-14
29	-10	60*	0
30	-6	0	x
31	1	25	-4
32	x	-6	-2

Later entries
cpd	compound	FGF22 binding	ERp5 inh	PglD inh
33	CCC(=O)N1CC2(CN(Cc3ccccc3Cl)C2)c2c([nH]c3cc(OC)ccc23)[C@H]1CO	0	-5	x
34	O=C(Cc1ccccn1)N1CC(=O)N2[C@@H](CO)[C@@H](c3ccc(C#CC4CCCC4)cc3)[C@@H]2C1	x	-3	x
35	CC(C)c1ccc(S(=O)(=O)N2CCN(C(=O)c3ccco3)CC2)cc1	44*	7	1
36	O=C(C1CCC1)N1CC2(C1)[C@H](c1ccccc1)[C@H](CO)N2Cc1cncnc1	x	-2	x
37	COc1ccc(NC(=O)N(C)C[C@@H]2Oc3ccc(NS(=O)(=O)c4c(C)noc4C)cc3CC(=O)N([C@H](C)CO)C[C@H]2C)cc1	0	-1	2
38	COc1ccc(CNC(=O)C[C@@H]2C[C@H]3c4cc(NS(C)(=O)=O)ccc4O[C@H]3[C@@H](CO)O2)cc1	0	-7	3
39	C/C(=N\NC(=O)CSc1nc2ccccc2[nH]1)c1ccncc1	43*	1	2
40	COc1cc(/C(C)=N\NC(=O)CSc2nc3ccccc3n2C)ccc1O	0	-6	-1

cpd	UUG fidelity	PDI turbidity	ARNT TACC3 PPI
33	x	x	x
34	x	x	x
35	0	8	21
36	x	x	x
37	3	x	x
38	-11	x	-6
39	-12	-5	7
40	-17	7	-4

Later entries.
cpd	compound	FGF22 binding	ERp5 inh	PglD inh
41	C/C(=N/NC(=O)CSc1nc2ccccc2n1C)c1ccncc1	43*	-2	x
42	Cc1ccc(CSc2nnc(-c3cccs3)n2C)cc1	x	x	x
43	CSc1nnc(-c2cccs2)n1C	43*	0	x
44	N#CC(C#N)=Cc1cccn1-c1ccc(C(=O)O)cc1	0	-7	x
45	N#C/C(=C/c1cccn1-c1cccc(C(=O)O)c1)c1ccc(Cl)cc1	44*	3	x
46	C[C@@H]1CN([C@@H](C)CO)C(=O)c2cc(C3=CCCC3)cnc2O[C@H]1CN(C)C(=O)c1ccc2c(c1)OCO2	0	1	-4
47	N#CCCn1nc(-c2ccc(Br)cc2)cc1Nc1ccccc1NC(=O)C(F)(F)F	2.5*	0	x
48	C[C@@H]1CN([C@H](C)CO)C(=O)c2cc(NC(=O)NC3CCCCC3)ccc2O[C@H]1CN(C)Cc1ccc2c(c1)OCO2	0	2	-1
49	C[C@H]1CN([C@@H](C)CO)C(=O)Cc2cc(NC(=O)Nc3ccccc3)ccc2O[C@H]1CN(C)Cc1ccc(C(=O)Nc2ccccc2N)cc1	0	6	x
50	O=C(O)c1ccc(Cn2cnc3sc4c(c3c2=O)CCCC4)cc1	43*	-6	4

cpd	UUG fidelity	PDI turbidity	ARNT TACC3 PPI
41	x	8	-4
42	x	-2	-5
43	x	2	-10
44	x	0	-5
45	x	-4	-2
46	x	x	-6
47	x	-22	-1
48	0	x	x
49	x	x	x
50	-4	-1	-1
